The text below walks through data of paper PMC10870243 (Clinical and Translational Science, 2024).

Where two headings read alike, the source gives them in different places.

The format of the data set is in vivo, human. Particulars: for PTR (peak-to-trough ratio): geometric mean; for CL/F: geometric mean (%CV).
The mark [1] stands for this setting: clesacostat 15 mg + ervogastat 300 mg b.i.d., Day 14.
Where [2] appears, read: clesacostat 15 mg b.i.d. alone, Day 7.

In the case of `COc1cc(C(=O)N2CCC3(CC2)CC(=O)c2c(cnn2C(C)C)C3)cc(-c2ccc(C(=O)O)cc2)n1` [clesacostat], under setting [1], the “PTR (peak-to-trough ratio)” value amounted to 2.41 h and the CL/F is given as 1.58 (23) L/h. Moreover, under setting [2], the “PTR (peak-to-trough ratio)” value is reported as 1.92 h and the CL/F was 1.24 (26) L/h.
